One compound from ChEMBL document CHEMBL1138707, “Bridgehead modification of trihalocycloheptabenzopyridine leads to a potent farnesyl protein transferase inhibitor with improved oral metabolic stability” (Bioorg Med Chem Lett, 2004) can be followed below.

The experiment addresses Protein farnesyltransferase (Homo sapiens, UniProt P49354+P49356).

`NC(=O)N1CCC(CC(=O)N2CCC([C@H]3c4ncc(Br)cc4CCc4cc(Cl)cc(Br)c43)CC2)CC1` [LONAFARNIB] yielded an IC50 of 500 µM.
